The target of this assay is T1, FXR (Homo sapiens, UniProt Q96RI1).
T1 sequence (Q96RI1 1-472 isoform Q96RI1-2): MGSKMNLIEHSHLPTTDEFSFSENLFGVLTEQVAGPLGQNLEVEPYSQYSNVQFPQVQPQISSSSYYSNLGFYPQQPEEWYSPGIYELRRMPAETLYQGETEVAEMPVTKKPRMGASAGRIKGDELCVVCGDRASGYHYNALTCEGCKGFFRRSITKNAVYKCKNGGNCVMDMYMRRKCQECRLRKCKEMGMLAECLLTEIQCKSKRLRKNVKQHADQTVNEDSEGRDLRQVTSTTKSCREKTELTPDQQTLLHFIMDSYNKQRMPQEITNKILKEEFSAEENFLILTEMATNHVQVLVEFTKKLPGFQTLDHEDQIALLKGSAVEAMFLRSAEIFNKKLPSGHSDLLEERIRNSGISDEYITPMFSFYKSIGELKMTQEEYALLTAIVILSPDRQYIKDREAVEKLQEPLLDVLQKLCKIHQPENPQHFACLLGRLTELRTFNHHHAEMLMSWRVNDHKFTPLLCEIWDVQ
The class given is cell-based.

The chains behind the UniProt entries cited, without tags or fusion partners. Where a name states a change or a piece, a line headed by the entry shows the natural chain unless it says otherwise.
UniProt Q96RI1: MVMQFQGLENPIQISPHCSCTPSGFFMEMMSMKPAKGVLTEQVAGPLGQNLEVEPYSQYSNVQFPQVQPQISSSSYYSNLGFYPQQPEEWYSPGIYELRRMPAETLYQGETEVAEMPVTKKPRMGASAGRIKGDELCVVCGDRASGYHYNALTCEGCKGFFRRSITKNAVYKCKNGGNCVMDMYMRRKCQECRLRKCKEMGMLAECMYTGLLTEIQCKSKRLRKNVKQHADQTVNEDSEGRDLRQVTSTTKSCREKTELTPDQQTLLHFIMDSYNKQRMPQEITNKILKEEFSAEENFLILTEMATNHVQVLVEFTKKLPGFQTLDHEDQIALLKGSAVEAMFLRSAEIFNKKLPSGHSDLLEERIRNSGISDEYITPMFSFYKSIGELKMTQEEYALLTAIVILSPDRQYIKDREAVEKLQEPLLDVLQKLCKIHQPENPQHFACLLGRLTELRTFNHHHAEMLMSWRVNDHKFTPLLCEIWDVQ

As for Guggulsterone E&Z [GS], the “effect on OCA- or FA-elevated FXR transcriptional activity” value is “reversed”.

Values taken from PMC9795464 (JACS Au, 2022).
